## Yeast mating assay B: variants of the scFv Ab-14

From the AlphaSeq antibody data of Li et al. 2023 (doi:10.1038/s41467-023-39022-2), copy in the FLAb collection.

All variants were tested on one target, the spike HR2 peptide PDVDLGDISGINAS (SARS-CoV-2).

Ab-14 is the parent antibody, in scFv form: VH, then the linker GGGGSGGGGSGGGGS, then VL. The light chain is unchanged in all variants.
VH: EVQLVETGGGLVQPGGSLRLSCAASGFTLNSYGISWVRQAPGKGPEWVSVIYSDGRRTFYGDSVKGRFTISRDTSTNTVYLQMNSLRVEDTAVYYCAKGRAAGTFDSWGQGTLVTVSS
VL: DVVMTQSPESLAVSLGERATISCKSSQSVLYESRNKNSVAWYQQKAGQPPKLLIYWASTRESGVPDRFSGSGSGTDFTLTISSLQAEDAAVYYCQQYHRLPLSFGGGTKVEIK

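The parent was found by panning a naive human phage display library on the peptide. This is the validation round: designs drawn from the data on random variants, tested in the same kind of assay. Group labels follow the data file (Ctrl: baseline library sampled from a position-specific scoring matrix, with some repeated check sequences; Rand: our label for a block that the file lists under HC and that is probably the random mutants of the ten best first-round binders; En: ensemble of fine-tuned language models; GP: Gaussian process model; GPLM: also part of the Gaussian process libraries; HC: hill climbing; Gen: genetic algorithm; Gibbs: Gibbs sampling; a sequence that several methods proposed may carry one label only). The scFvs were displayed on barcoded MATa yeast, the peptide on MATalpha yeast. Mating (16 h, 30 °C) was followed by selection of diploids and sequencing of their barcodes. The ratio of observed to expected reads was calibrated, replicate by replicate, on BCL2-family standards whose Kd was known from biolayer interferometry. Mating was done six times.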

The parent's heavy chain CDRs are GFTLNSYGIS, VIYSDGRRTFYGDSVK, GRAAGTFDS; each variant's own CDRs replace them letter for letter. Values are apparent Kd, the geometric mean of the replicates that gave a signal; lower means stronger binding. "not detected" means that the variant was in the library but no mating with the target was seen in any replicate; the authors take this as a sign of poor binding, and no number exists. The authors' rule: three or more of the six replicates give a measured affinity, fewer mean a poor binder. The range of this assay differs from that of the first round, and the authors advise against merging the two. Empty control strains, which show no peptide, gave a signal in 1% of pairings with all heavy chain designs; the median was 120 nM and 95% of these signals were weaker than 7.0 nM. No background was subtracted.

CDR-H1	CDR-H2	CDR-H3	group	apparent Kd	seen in
GFTLMQYGIS	VIYSDGRRTFYSDSVK	GRQAGFFDS	Rand	not detected	0/6
GFDLNEYGIS	VIYADGKRTFYADSVK	GQVAGTFDM	En_HC	470 pM	6/6
GFDLNEYGIS	VIYADGMRTQYIDSVK	GNEAGTFDS	En_HC	3.8 nM	6/6
GFDLDEYGIS	VIYADGMRTSYADSVK	GQNAGTFDV	En_Gen	190 pM	5/6
GFDLNSYGIS	VIYSDGRRTFYGDSVK	GRTAGAFWS	GP_HC	not detected	0/6
GFPLNSYGIS	VIYSDGRRTFYGDSVK	GREAGTFDS	Ctrl	2.9 nM	6/6
GFTLNDYGIS	VIYSDGRRTAYIDSVK	GRAAGTFDS	GPLM_HC	1.9 nM	6/6
GFKLDEYGIS	VIYADGRRTFYTDSVK	GGNAGTFDV	En_HC	210 pM	6/6
GFDLEDYGIS	VIYADGMRTQYADSVK	GEAAGTFDL	En_HC	3.9 nM	6/6
GETLNSYGIL	VIYSDGRRTFYSDSVK	GRAGGTFDS	Rand	not detected	0/6
GFTLNSYGIS	VIYSDGRRTFYDDDVK	GQAAGTFDS	GP_HC	100 nM	5/6
GFDLDEYGIS	VIYADGQRTYYADSVK	GENAGTFDI	En_Gen	530 pM	6/6
GFDLDEYGIS	VIYADGRRTFYADSVK	GTLAGTFDQ	En_HC	170 pM	6/6
GFDLNSYGIS	VIYSDGRRTFYDDKVK	GRTAGTFDS	GP_Gen	450 pM	5/6
GFDVMEYGIS	VIYADGLRTQYANSVK	GGLRTDFFV	En_Gibbs	not detected	0/6
GFELNSYGIS	VIYSDGRRTFYGDSVK	GKQAGTFDS	GPLM_Gibbs	3.8 nM	6/6
GFNLDEYGIS	VIYADGRRTFYQDSVK	GEGAGTFDM	En_HC	2.9 nM	6/6
GFTLNSYGIS	VIYSDGRRTFYSDSVK	GKLAGTFDS	GPLM_Gen	6.3 nM	6/6
GFTLSEYGIS	VIYSDGRRTWYGDQVK	GRAAGTFDS	Ctrl	not detected	0/6
GGDLNEYGIS	VIYADGVRKNYIDSVK	GQNGDVLNI	En_Gibbs	not detected	0/6
GFTLNQYGIS	VIYSDGKRTFYSDSVK	GEAAGTFDS	GPLM_HC	2.3 nM	6/6
GFDLNEYGIS	VIYADGVRTFYVDSVK	GESAGTFDT	En_HC	220 pM	6/6
GFTLESYGIS	VIYSDGRRTFYADSVK	GWTAGTFDS	GP_Gibbs	14 nM	6/6
GFTLNSYGIS	VIYSDGRRTAYGDSVK	GSATGTFDS	Ctrl	270 nM	2/6
GFNLNEYGIS	VIYADGRRTFYSNSVK	GEIAGTFDV	En_HC	240 pM	6/6
GFTLNSYSIS	VIYSDGRRTMYGDSVK	GRAAGTFDS	Ctrl	not detected	0/6
GFTLNQYGIS	VIYSDGRRTFYVDSVK	GRLAGTFDT	GP_HC	25 nM	6/6
GFNLNEYGIS	VIYADGVRTFYTDDVK	GEFAGTFDL	En_HC	310 pM	6/6
MFDLNTYGIS	VIYSDGRRTFYGDSVK	GEAAGTFDV	GP_Gibbs	96 nM	6/6
GFDLNEYGIS	VIYADGQRTFYSDSVK	GEIAGTFDQ	En_HC	580 pM	6/6
GFTLDEYGIS	VIYADGRRTFYADSVK	GEHAGTFDI	En_HC	3.4 nM	6/6
GFDLNEYGIS	VIYADGRRTFYSDSVK	GETGGTFDE	En_HC	3.2 nM	6/6
GFQLNSYGIS	VIYSDGRRTFYSDQVK	GEAAGTFDS	GP_Gibbs	8.2 nM	4/6
GFTLNSYGIS	VIYADGRRTFYGDQVK	GRAAGTNKS	Rand	not detected	0/6
GFTLKSYGIS	VIYSDGRRTFYGNSVK	SRVAGTFLS	Ctrl	not detected	0/6
GFTLNSYGIS	VIYSDGRRTFYADSVK	NRAAGTFDS	Ctrl	140 nM	1/6
GFDLNEYGIS	VIYADGKRTSYADSVK	GQNAGTFDQ	En_HC	1.3 nM	6/6
GFTLNMYGIS	VIYSDGYRTFYGDSVK	GRAAGTFDV	Ctrl	210 nM	2/6

The remaining entries, values ahead:

apparent Kd	seen in	CDR-H1	CDR-H2	CDR-H3	group
92 nM	4/6	GFTLNSYGIS	VIYSDGRRTFYSDSVK	GRANTTTDS	Ctrl
6.0 nM	5/6	GFTLESYGIS	VIYSDGRRTFYLDSVK	GRAAGTFDS	Ctrl
7.5 nM	3/6	GFKLNSYGIS	VIYSDGRRTFYDDSVK	GQLAGTFDS	GPLM_HC
28 nM	4/6	GNTLNEYGIS	VIYSDGRRTFYTDSVK	GRAAGTFDS	GP_HC
790 pM	6/6	GFDLEEYGIS	VIYADGMRTFYSDSVK	GENAGTFDI	En_HC
not detected	0/6	GFTLNSYGIS	VIYSDGRRTFYGGSVK	GRHAGTFWS	Ctrl
81 pM	6/6	GFDLNEYGIS	VIYADGVRTSYADSVK	GETAGTFDV	En_Gen
360 pM	6/6	GFDLNEYGIS	VIYADGRRTFYSDSVK	GHIAGTFDQ	En_HC
not detected	0/6	TFTLNDYGIS	VIYSDGRRNFYGDSAK	GRAALTFIS	Rand
not detected	0/6	GFTINEYGIS	VIGSDGRRTFYWDSVK	GRAAVTFDQ	Rand
not detected	0/6	GFTLNSYGIS	VIYSDGRRTFYRDDVK	GQTAGTFDL	GP_Gibbs
2.1 nM	2/6	GFTLNQYGIS	VIYSDGRRTQYIDSVK	GRAAGTFDS	GP_HC
not detected	0/6	GFTVNSYGIS	VIYSDGRRTFYGDSVK	GRASGTFDS	Ctrl
2.1 nM	6/6	GFTLNSYGIS	VIYSDGRRTFYADDVK	GQAAGTFDS	GPLM_Gen
1.5 nM	6/6	GFELNSYGIS	VIYSDGRRTFYEDSVK	GTQAGTFDS	GP_Gibbs
4.2 nM	5/6	GFTLNDYGIS	VIYSDGRRTQYGDSVK	GRAAGTFDS	Ctrl
not detected	0/6	RFTLNSYGIS	VIYSDGRRTFYIDSVK	GRTAGTFDS	GP_HC
not detected	0/6	GQDLNEFGIS	VIYADGIRNQYADSFK	GQNGFFFDI	En_Gibbs
7.9 nM	6/6	GFDLNEYGIS	VIYADGRRKAYADSVK	GNTAGTFDV	En_HC
not detected	0/6	KFSLNSYGIS	VIYSDGRRTFYGDSVK	GQAAGTFDS	GPLM_Gen
not detected	0/6	GFTLNDYGIS	VIYSDGRRTFYDDSYK	GRTAGTFDW	Ctrl
24 nM	6/6	GFTLNSYGIS	VIYSDGRKTFYGDSVK	GAEAGTFDS	Ctrl
not detected	0/6	GFTLNEYGIS	VIYSDGRRTFYGDSVK	GRIAGTFIS	GPLM_HC
140 pM	6/6	GFNLNEYGIS	VIYADGRRTFYTDDVK	GEVAGTFDL	En_HC
4.6 nM	6/6	GFSLNSYGIS	VIYSDGRRTYYGDSVK	GKAAGTFDS	GPLM_Gen
not detected	0/6	GNTLNEYGIS	VIYADGIRKQYSDNVK	GMNTDTFDQ	En_Gibbs
12 nM	6/6	GFSLDEYGIS	VIYADGRRTFYADSVK	GNSAGTFDM	En_HC
480 pM	2/6	YFSLNSYGIS	VIYSDGRRTFYADSVK	GNAAGTFDS	GPLM_Gen
550 pM	6/6	GFDLNEYGIS	VIYADGRRTAYVDDVK	GENAGTFDV	En_Gen
570 pM	6/6	GFDLNEYGIS	VIYADGMRTFYADSVK	GEVAGTFVQ	En_HC
2.4 nM	6/6	GFNLNSYGIS	VIYSDGRRTFYADSVK	GRTAGTFDN	GP_Gibbs
29 nM	6/6	GFTLNSYGIS	VIYSDGRRTFYGDSVK	GQLAGTFDS	GPLM_Gen
8.5 nM	6/6	GFELNSYGIS	VIYSDGKRTFYIDSVK	GRTAGTFDS	GP_Gen
200 pM	6/6	GFDLNEYGIS	VIYADGRRTFYADSVK	GEVAGTFNS	En_HC
6.0 nM	6/6	WFDLNSYGIS	VIYSDGRRTAYGDSVK	GRQAGTFDS	GP_Gen
4.1 nM	4/6	GFNLNSYGIS	VIYSDGRRTFYADSVK	GQAAGTFDK	GPLM_Gen
530 pM	6/6	GFDLNEYGIS	VIYADGLRTAYTDSVK	GNQAGTFDV	En_Gen
27 nM	1/6	GFTLNSYGIS	VIYSDGRRTFYGDSVK	GKAAGTFDD	Ctrl

The first 9 variants above that were never detected:

| CDR-H1 | CDR-H2 | CDR-H3 | group | apparent Kd | seen in |
|---|---|---|---|---|---|
| GFTLMQYGIS | VIYSDGRRTFYSDSVK | GRQAGFFDS | Rand | not detected | 0/6 |
| GFDLNSYGIS | VIYSDGRRTFYGDSVK | GRTAGAFWS | GP_HC | not detected | 0/6 |
| GETLNSYGIL | VIYSDGRRTFYSDSVK | GRAGGTFDS | Rand | not detected | 0/6 |
| GFDVMEYGIS | VIYADGLRTQYANSVK | GGLRTDFFV | En_Gibbs | not detected | 0/6 |
| GFTLSEYGIS | VIYSDGRRTWYGDQVK | GRAAGTFDS | Ctrl | not detected | 0/6 |
| GGDLNEYGIS | VIYADGVRKNYIDSVK | GQNGDVLNI | En_Gibbs | not detected | 0/6 |
| GFTLNSYSIS | VIYSDGRRTMYGDSVK | GRAAGTFDS | Ctrl | not detected | 0/6 |
| GFTLNSYGIS | VIYADGRRTFYGDQVK | GRAAGTNKS | Rand | not detected | 0/6 |
| GFTLKSYGIS | VIYSDGRRTFYGNSVK | SRVAGTFLS | Ctrl | not detected | 0/6 |